Experimental data reported in paper PMC11784021.

Target: AAV6 VP1-BR FITC-tagged peptide (residues 120-172) (adeno-associated virus serotype 6 (AAV6))
Test: fluorescence polarisation; FITC-tagged AAV6 VP1-BR peptide at 2 nM; importin isoforms serially diluted from an upper concentration of 4.5 µM; three independent experiments

Q: Which Kd does the source give for “human importin α1 lacking the IBB domain (hIMPα1ΔIBB) (from UniProt P52292 1-529) (domain or fragment)” here?
A: The Kd was 557 nM.
